Data published in PMC13012646.

Target: human kallikrein 7 variant hK7-2.7 (human) (UniProt P49862)

inhibition of Aβ8 FRET reporter cleavage (5 nM protease, 200 nM substrate, 37°C): > 30 µM
Substance: bovine pancreatic trypsin inhibitor (from UniProt P00974 36-93) (natural protein)
